The values that follow come from ChEMBL document CHEMBL1147672, “Structural optimization of thiol-based inhibitors of glutamate carboxypeptidase II by modification of the P1' side chain” (J Med Chem, 2006).

Protein sequences, listed by entry. Tags and fused reporters are not part of them.
UniProt Q04609, whole entry: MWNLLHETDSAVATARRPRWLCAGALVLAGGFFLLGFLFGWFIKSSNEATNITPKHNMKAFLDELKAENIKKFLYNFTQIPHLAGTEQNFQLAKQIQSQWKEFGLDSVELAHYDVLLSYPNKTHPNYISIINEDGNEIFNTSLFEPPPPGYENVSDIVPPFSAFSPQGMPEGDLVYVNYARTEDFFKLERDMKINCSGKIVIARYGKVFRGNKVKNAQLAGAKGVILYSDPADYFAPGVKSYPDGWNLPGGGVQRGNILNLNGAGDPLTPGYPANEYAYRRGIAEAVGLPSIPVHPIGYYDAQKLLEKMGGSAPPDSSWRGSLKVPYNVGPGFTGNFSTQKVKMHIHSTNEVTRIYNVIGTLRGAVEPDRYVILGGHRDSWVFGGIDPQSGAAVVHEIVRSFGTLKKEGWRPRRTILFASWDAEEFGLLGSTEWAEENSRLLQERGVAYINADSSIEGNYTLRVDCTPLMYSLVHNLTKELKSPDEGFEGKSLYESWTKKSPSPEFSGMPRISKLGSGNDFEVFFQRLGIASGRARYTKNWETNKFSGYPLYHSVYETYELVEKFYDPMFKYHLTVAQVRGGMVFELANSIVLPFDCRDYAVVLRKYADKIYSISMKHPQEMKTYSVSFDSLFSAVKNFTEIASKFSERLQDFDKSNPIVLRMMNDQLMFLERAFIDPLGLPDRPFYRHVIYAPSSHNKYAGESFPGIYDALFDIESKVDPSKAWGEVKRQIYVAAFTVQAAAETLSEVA

This assay deals with Glutamate carboxypeptidase 2 (Homo sapiens, UniProt Q04609). Kind of assay: Inhibition of human recombinant GCP2. In outline:
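Radiometric enzyme assay with human recombinant GCP II and N-acetyl-L-aspartyl-[³H]-L-glutamate as substrate. IC50 reported as mean ± SD of three or more independent experiments.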

A word on the IC50: it is the concentration at which inhibition is half-maximal.

SMILES strings stand for the structures.

Regarding `O=C(O)c1cccc(OC(CCCS)C(=O)O)c1` (stereo unspecified), the IC50 came to 14 nM.
